These results are taken from patent US20080096811A1, “[…] VPAC2 RECEPTOR PEPTIDE AGONISTS” (Eli Lilly and Company, published 2008).

Chains of the proteins cited; added tags and fusions are not shown. Residues count along the entry.
UniProt P35000, 23-437: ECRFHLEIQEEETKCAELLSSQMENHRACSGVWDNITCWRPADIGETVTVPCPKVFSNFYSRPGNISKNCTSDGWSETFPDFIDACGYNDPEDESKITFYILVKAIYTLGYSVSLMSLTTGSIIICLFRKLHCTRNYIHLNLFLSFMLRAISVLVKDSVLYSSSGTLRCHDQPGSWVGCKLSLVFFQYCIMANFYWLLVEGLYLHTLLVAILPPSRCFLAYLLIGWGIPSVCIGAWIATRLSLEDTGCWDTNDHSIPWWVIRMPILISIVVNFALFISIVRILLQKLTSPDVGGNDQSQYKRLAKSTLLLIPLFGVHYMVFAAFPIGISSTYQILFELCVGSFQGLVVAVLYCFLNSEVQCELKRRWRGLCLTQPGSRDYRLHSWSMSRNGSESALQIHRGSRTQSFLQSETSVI
UniProt P32241, 31-457: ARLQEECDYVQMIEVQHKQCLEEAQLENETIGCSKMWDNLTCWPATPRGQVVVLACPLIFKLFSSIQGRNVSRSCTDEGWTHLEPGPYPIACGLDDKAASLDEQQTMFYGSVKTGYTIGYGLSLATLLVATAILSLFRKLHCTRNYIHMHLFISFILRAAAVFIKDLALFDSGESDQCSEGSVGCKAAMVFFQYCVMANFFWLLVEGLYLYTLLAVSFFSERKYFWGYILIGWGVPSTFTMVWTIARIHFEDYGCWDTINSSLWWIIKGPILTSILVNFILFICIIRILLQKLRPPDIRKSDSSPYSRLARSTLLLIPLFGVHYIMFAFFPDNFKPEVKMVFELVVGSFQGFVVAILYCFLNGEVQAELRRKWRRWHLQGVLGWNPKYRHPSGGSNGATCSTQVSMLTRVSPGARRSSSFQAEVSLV
UniProt P41586, 21-468: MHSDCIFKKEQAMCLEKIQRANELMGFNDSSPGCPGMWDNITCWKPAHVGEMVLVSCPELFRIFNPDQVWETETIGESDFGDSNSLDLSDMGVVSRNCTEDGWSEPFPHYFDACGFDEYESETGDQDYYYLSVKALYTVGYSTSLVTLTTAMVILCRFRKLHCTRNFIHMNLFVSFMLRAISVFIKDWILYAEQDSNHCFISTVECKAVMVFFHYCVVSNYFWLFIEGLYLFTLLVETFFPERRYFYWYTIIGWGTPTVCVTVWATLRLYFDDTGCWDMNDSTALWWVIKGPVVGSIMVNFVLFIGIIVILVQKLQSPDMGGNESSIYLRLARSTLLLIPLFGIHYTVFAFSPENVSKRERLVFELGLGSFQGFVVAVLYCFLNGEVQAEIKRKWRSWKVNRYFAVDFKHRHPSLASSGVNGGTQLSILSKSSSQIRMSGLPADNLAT

One series addresses rat VPAC2 receptor (Rattus norvegicus, UniProt P35000). As to the kind of experiment: cell-based.
For a further series, the target named is human VPAC1 (Homo sapiens, UniProt P32241). As to the kind of experiment: Filter binding assay, human VPAC1 membranes, 125I-labeled VIP tracer. Details: expressed in transfected cells. The method, then:
(§1) For this assay, the solutions and equipment include:
(§2) Presoak solution: 0.5% Polyethyleneamine in Aqua dest.
(§3) Buffer for flushing filter plates: 25 mM […] pH 7.4
(§4) Blocking buffer: 25 mM HEPES pH 7.4; 0.2% protease free BSA
(§5) Assay buffer: 25 mM HEPES pH 7.4; 0.5% protease free BSA
(§6) Dilution and assay plate: PS-Microplate, U form
(§7) Filtration Plate Multiscreen FB Opaque Plate; […] Type B Glasfiber filter
(§8) In order to prepare the filter plates, aspirate the presoak solution by vacuum filtration. Flush the plates twice with 200 μL flush buffer. Add 200 μL blocking buffer to the filter plate. The filter plate is then incubated […] for 1 hour at room temperature.
(§9) Fill the assay plate with 25 μL assay buffer, 25 μL membranes (2.5 μg) suspended in assay buffer, 25 μL compound (agonist) in assay buffer, and 25 μL tracer (about 40000 cpm) in assay buffer. Incubate the filled plate for 1 hour with shaking.
(§10) Conduct the transfer from assay plate to filter plate. Aspirate the blocking buffer by vacuum filtration and wash two times with flush buffer. Transfer 90 μL from the assay plate to the filter plate. Aspirate the 90 μL transferred from assay plate and wash three times with 200 μL flush buffer. Remove the plastic support. Dry for 1 hour at 60° C. Add 30 μL Microscint. Perform the count.

A further series addresses human PAC1 (Homo sapiens, UniProt P41586). As to the kind of experiment: biochemical. As for the experimental part:
as §1, §2, §3, §4, §5, §6, §7, §8, §9, §10

For series [1] the following is noted: 10 μM peptide in rat serum, 37° C. vs 4° C. with aprotinin, EC50,4C/EC50,37C.
The target in series [2] is T1, human VPAC2 (Homo sapiens, UniProt P41587).
T1 construct: expressed in transfected cells
T1 sequence (P41587 24-438): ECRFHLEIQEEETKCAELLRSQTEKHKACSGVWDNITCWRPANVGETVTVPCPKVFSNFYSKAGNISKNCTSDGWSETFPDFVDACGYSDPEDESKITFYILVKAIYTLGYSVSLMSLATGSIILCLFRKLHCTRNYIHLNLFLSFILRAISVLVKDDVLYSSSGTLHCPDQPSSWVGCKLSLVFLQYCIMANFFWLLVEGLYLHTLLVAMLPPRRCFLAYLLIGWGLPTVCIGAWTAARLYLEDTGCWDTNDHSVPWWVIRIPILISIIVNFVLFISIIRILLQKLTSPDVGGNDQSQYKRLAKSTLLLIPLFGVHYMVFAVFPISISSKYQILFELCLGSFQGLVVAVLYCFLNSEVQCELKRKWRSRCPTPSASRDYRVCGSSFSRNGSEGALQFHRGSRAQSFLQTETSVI
As to the kind of experiment: Filter binding assay, human VPAC2 membranes, 125I-labeled VIP tracer. The method, then: as §1, §2, §3, §4, §5, §6, §7, §8, §9, §10

Series [3] deals with T1, human VPAC2. As to the kind of experiment: Alpha screen cAMP in vitro potency, human VPAC2. Format: cell-based. As for the experimental part: Alpha screen: Cells are washed in the culture flask once with PBS. Then, the cells are rinsed with enzyme free dissociation buffer. The dissociated cells are removed. The cells are then spun down and washed in stimulation buffer. For each data point, 50,000 cells suspended in stimulation buffer are used. To this buffer, Alpha screen acceptor beads are added along with the stimuli. This mixture is incubated for 60 minutes. Lysis buffer and Alpha screen donor beads are added and are incubated for 60 to 120 minutes. The Alpha screen signal (indicative of intracellular cAMP levels) is read in a suitable instrument (e.g. AlphaQuest from Perlin-Elmer). Steps including Alpha screen donor and acceptor beads are performed in reduced light.

Structures are written as SMILES. Some results are limits rather than exact numbers.

As usually defined, the EC50 is the midpoint of the concentration-response curve. Higher therefore signals a need for much substance. The term IC50 denotes the concentration that inhibits the measured activity by half. Low values mean greater potency, high ones weaker potency. Regarding `CCCCCC(=O)N[C@@H](Cc1c[nH]cn1)C(=O)N[C@@H](CO)C(=O)N[C@@H](CC(=O)O)C(=O)N[C@@H](C)C(=O)N[C@H](C(=O)N[C@@H](Cc1ccccc1)C(=O)N[C@H](C(=O)N[C@@H](CC(=O)O)C(=O)N[C@@H](CC(N)=O)C(=O)N[C@@H](Cc1ccc(O)cc1)C(=O)N[C@H](C(=O)N[C@@H](CCCNC(=N)N)C(=O)N[C@@H](CC(C)C)C(=O)N[C@@H](CCCNC(=N)N)C(=O)NC(C)(C)C(=O)N[C@@H](CCC(N)=O)C(=O)N[C@H](C(=O)N[C@@H](C)C(=O)N[C@@H](C)C(=O)NC(C)(C)C(=O)N[C@@H](CCCCN)C(=O)N[C@@H](Cc1ccc(O)cc1)C(=O)N[C@@H](CC(C)C)C(=O)N[C@@H](CCC(N)=O)C(=O)N[C@@H](CO)C(=O)N[C@H](C(=O)N[C@@H](CCCCN)C(=O)N[C@@H](CC(N)=O)C(=O)N[C@@H](CO)C(=O)N[C@@H](CCCNC(=N)N)C(=O)N[C@H](C(=O)N[C@@H](CO)C(=O)N1CCC[C@H]1C(=O)N1CCC[C@H]1C(=O)N1CCC[C@H]1C(N)=O)[C@@H](C)O)[C@@H](C)CC)C(C)C)[C@@H](C)O)[C@@H](C)O)C(C)C` [Agonist P309], the results for the EC50 at rat VPAC2 receptor and on human VPAC2 [3] were 0.05 nM and 0.16 nM, respectively. Also, the IC50 at human VPAC1 is over 3000 nM; against human PAC1 it was over 25000 nM; at human VPAC2 [2], 0.42 nM. Besides, the “Rat Serum Stability (Estimated purity in % after 18 hours)” value in series [1] is reported as 29.72%.
